Antibody variant affinities, Ab-14 heavy chain, assay B

Reference: Li et al. 2023, doi:10.1038/s41467-023-39022-2. File: FLAb, binding data.

Binding partner: SARS-CoV-2 spike HR2 peptide, sequence PDVDLGDISGINAS.

The variants keep the light chain, the linker and the frameworks of Ab-14 (scFv order VH, three GGGGS repeats, VL).
VH: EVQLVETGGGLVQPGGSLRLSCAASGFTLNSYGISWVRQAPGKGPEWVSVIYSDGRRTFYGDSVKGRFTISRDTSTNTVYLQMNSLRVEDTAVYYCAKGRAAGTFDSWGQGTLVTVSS
VL: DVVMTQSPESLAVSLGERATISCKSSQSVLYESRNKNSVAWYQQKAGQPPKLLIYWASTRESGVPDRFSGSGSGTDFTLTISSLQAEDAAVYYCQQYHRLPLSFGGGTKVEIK

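These sequences belong to a second round, designed from the earlier measurements on random variants of the parent. Several design methods are mixed in this list. In AlphaSeq, yeast of one mating type display the scFv and yeast of the other type display the target. Mating (16 h, 30 °C) was followed by selection of diploids and sequencing of their barcodes. Scores were corrected for input abundance and mapped to Kd with protein pairs of known affinity run in the same pool. The assay was run in six technical replicates.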

Each variant is given by its three heavy chain CDRs, as the data file delimits them; those of the parent are GFTLNSYGIS, VIYSDGRRTFYGDSVK, GRAAGTFDS. Variants here have at most six changes. Kd is apparent (estimated from mating counts) and averaged on the log scale over replicates with a signal. Smaller is tighter. "nd" means that the variant was in the library but no mating with the target was seen in any replicate; the authors take this as a sign of poor binding, and no number exists. Order: sorted from the lowest average up, undetected variants last. Background: pairings of all heavy chain designs with three empty control strains gave a value in 1% of cases (median 120 nM, 5th percentile 7.0 nM). Values in that range, when seen in few replicates, are hard to tell from nonspecific mating. For each scFv, signals with the empty controls are counted beside the result.

| CDR-H1 | CDR-H2 | CDR-H3 | apparent Kd | detected | signal with controls |
|---|---|---|---|---|---|
| GFDLNEYGIS | VIYADGRRTFYADSVK | GTAAGTFDI | 280 pM | 6/6 | 0/18 |
| GFSLNEYGIS | VIYSDGRRTFYGDSVK | GLTAGTFDA | 360 pM | 6/6 | 0/18 |
| GFDLNEYGIS | VIYSDGRRTFYGDSVK | GRTAGTFDT | 370 pM | 6/6 | 2/18 |
| GFDLNSYGIS | VIYSDGKRTFYDDSVK | GRAAGTFDS | 400 pM | 6/6 | 0/18 |
| GFSLNSYGIS | VIYSDGRRTFYSDSVK | GATAGTFDS | 460 pM | 6/6 | 0/18 |
| GFELNSYGIS | VIYADGRRVFYGDSVK | GRAAGTFES | 570 pM | 6/6 | 0/18 |
| GFTLNEYGIS | VIYSDGRRTFYRDDVK | GRTAGTFDS | 590 pM | 6/6 | 1/18 |
| GFTLNEYGIS | VIYSDGRRTFYSDSVK | GRMAGTFDS | 610 pM | 6/6 | 0/18 |
| GFSLNSYGIS | VIYSDGRRTFYDDSVK | GTLAGTFDS | 620 pM | 6/6 | 1/18 |
| GFTLNEYGIS | VIYADGRRTFYGDSVK | GRAAGTFES | 770 pM | 6/6 | 0/18 |
| GFTLNSYGIS | VIYSDGRRTEYADSVK | GRAAGTFDS | 860 pM | 1/6 | 0/18 |
| GFTLNEYGIS | VIYSDGRRTFYGDSVK | GRNAGTFDS | 1.1 nM | 12/12 | 0/36 |
| GFDLNSYGIS | VIYSDGRRTFYGDRVK | GRTAGTFDT | 1.2 nM | 6/6 | 0/18 |
| KFDLNSYGIS | VIYSDGRRTFYADSVK | GRTAGTFDS | 1.2 nM | 6/6 | 0/18 |
| GFSLNEYGIS | VIYSDGRRTFYSDSVK | GRAAGKFDS | 1.3 nM | 6/6 | 1/18 |
| GFTLDSYGIS | VIYADGRRTFYGDSVK | GRAAGTFDT | 1.5 nM | 6/6 | 0/18 |
| GFNLNSYGIS | VIYSDGRRTFYSDSVK | GNAAGTFDS | 1.6 nM | 6/6 | 0/18 |
| GFTLDSYGIS | VIYSDGRRTFYSDRVK | GRTAGTFDT | 1.7 nM | 6/6 | 0/18 |
| GFQLNDYGIS | VIYSDGRRTFYGDSVK | GRTAGTFDK | 1.8 nM | 6/6 | 1/18 |
| GFNLNEYGIS | VIYADGRRTFYSDSVK | GEAAGTFDM | 1.8 nM | 2/6 | 0/18 |
| GFTLNSYGIS | VIYSDGRRTFYSDSVK | GMVGGTFDS | 1.9 nM | 6/6 | 0/18 |
| GFTLNSYGIS | VIYADGRRTSYGDSVK | GRAAGTNKS | 1.9 nM | 6/6 | 0/18 |
| GFSLNSYGIS | VIYSDGRRTFYEDSVK | GRTAGTFDS | 2.0 nM | 5/6 | 1/18 |
| GFSLNEYGIS | VIYSDGRRTFYGDSVK | GHAAGTFDS | 2.0 nM | 6/6 | 0/18 |
| GFELNNYGIS | VIYSDGRRTFYSDSVK | GKTAGTFDS | 2.1 nM | 6/6 | 0/18 |
| GFDLNSYGIS | VIYSDGQRTFYGDSVK | GRTAGTFDS | 2.3 nM | 6/6 | 0/18 |
| GFFLNDYGIS | VIYSDGRRTFYGDSVK | GQAAGTFDS | 2.4 nM | 6/6 | 0/18 |
| GFDLNSYGIS | VIYSDGRRTFYIDSVK | GNAAGTFDK | 2.4 nM | 4/6 | 0/18 |
| GFSLNSYGIS | VIYSDGRRTFYADHVK | GNAAGTFDS | 2.5 nM | 6/6 | 0/18 |
| GFSLNDYGIS | VIYSDGRRTFYGDSVK | GNAAGTFDS | 2.5 nM | 6/6 | 0/18 |
| GFTLNQYGIS | VIYSDGWRTFYSDSVK | GRLAGTFDT | 2.8 nM | 6/6 | 0/18 |
| GFELNSYGIS | VIYSDGQRTFYGDSVK | GQTAGTFDS | 2.8 nM | 6/6 | 0/18 |
| GFELNEYGIS | VIYSDGWRTFYGDSVK | GRTAGTFDS | 2.9 nM | 6/6 | 0/18 |
| GFTLNQYGVS | VIYADGRRTMYGDSVK | GRAAGSFDS | 3.0 nM | 6/6 | 2/18 |
| GFNLNSYGIS | VIYSDGRRTFYADSVK | GEAAGTFDS | 3.8 nM | 6/6 | 1/18 |
| GFYLNEYGIS | VIYSDGRRTFYGDQVK | GKTAGTFDS | 6.2 nM | 1/6 | 0/18 |
| GFSLNEYGIS | VIYSDGRRTFYGDSVK | GQAAGTFDG | 6.5 nM | 5/6 | 0/18 |
| GFSLNSYGIS | VIYSDGRRTFYVDSVK | GNAAGTFDN | 6.6 nM | 6/6 | 1/18 |
| GFTINEYGIS | VIYSDGRRTFYGDSVK | GRAAGTFDS | 6.7 nM | 6/6 | 2/18 |
| GFRLNSYGIS | VIGSDGRRTFYGDSVK | GRAAGWFNS | 7.3 nM | 1/6 | 0/18 |
| GFDLNSYGIS | VIYSHGPRTFYGDSVK | GRSAGWFNS | 7.5 nM | 1/6 | 0/18 |
| GFDLNSYGIS | VIYSDGRRTFYGDSVK | GRTAGTFDF | 7.9 nM | 6/6 | 1/18 |
| GFTLNSYGIS | VIYSDGRRTFYGDSVK | GEAAGTFDM | 8.5 nM | 5/6 | 0/18 |
| GFTLNDYGIS | VIYSDGRRTWYIDSVK | GNAAGTFDS | 10 nM | 2/6 | 0/18 |
| GFTLNSYGIS | VIYSDGKRTFYSDNVK | GKAAGTFDS | 12 nM | 6/6 | 1/18 |
| GFELNSYGIS | VIYSDGRRTFYTDRVK | GEAAGTFDS | 12 nM | 6/6 | 0/18 |
| GFTLNSYGIS | VIYSDGRRTFYKDSVK | GDAAGTFDS | 12 nM | 6/6 | 0/18 |
| GFNLNEYGIS | VIYSDGRRTQYSDSVK | GRAAGTFDS | 15 nM | 6/6 | 0/18 |
| GFKLNSYGIS | VIYSDGRRTFYSDSVK | GRAAGTFDS | 22 nM | 6/6 | 0/18 |
| GFTLNSYGIS | VIYSDGRRTFYVDSVK | GQTAGTFDK | 24 nM | 2/6 | 1/18 |
| GFTLNSYGIS | VIYSDGRRTFYGDSVK | GREAGTFDN | 31 nM | 5/6 | 0/18 |
| GFTLNNYGIS | VIYSDGRRTFYDDSVK | GQAAGTFDS | 31 nM | 6/6 | 0/18 |
| HFSLNSYGIS | VIYSDGRRTFYADSVK | GRAAGTFDS | 36 nM | 6/6 | 0/18 |
| GFELNSYGIS | VIYSDGRRTFYGDSVK | GQAAGTFDA | 39 nM | 1/6 | 0/18 |
| GYTIRSYGIS | VIYSDGNRTFYGDSVK | GRVAGTFDS | 42 nM | 1/6 | 1/18 |
| GFTLNSYGIS | VIYSDGRRTFYGDSVK | GRAAGTFDT | 46 nM | 6/6 | 0/18 |
| GFTLESYGIS | VIYSDGRRTFYDDSVK | GQSAGTFDS | 60 nM | 4/6 | 0/18 |
| GFNLNSYGIS | VIYSDGRRTFYGDSVK | GRAAGCFDS | 65 nM | 6/6 | 1/18 |
| GFTMNEYGIS | VIYSDGRKTFYTDSVK | GRFAPTFDS | 81 nM | 4/6 | 1/18 |
| GFTLNSYGSS | VIYSDGRRTFYGDSVK | GRAAGTFDS | 170 nM | 1/6 | 0/18 |
| GFTANSYGIS | VIYSDGRRTFYGDSVK | GDAAGTPDS | 180 nM | 1/6 | 0/18 |
| GFTLNSYGIS | VIYSDGRRVFYGDSVK | GRAAGTFDE | 240 nM | 3/6 | 0/18 |
| GFTLNSYGIS | VIYSDGRRTFYSDSVK | GRAAGLFDS | 420 nM | 3/6 | 1/18 |
| GFALNSYGIS | VIYSDGRRTFYGDSVD | GRAAGTFDS | 530 nM | 2/6 | 0/18 |
| GFDLNEYGIS | VIYSDGRRTFYGDSVK | GRAAGTFKS | 640 nM | 6/6 | 0/18 |
| GFDLNSYGIS | VIYSDGRRTFYHDSVK | GRAAGIFNS | 760 nM | 1/6 | 2/18 |
| GFDLNSYGIS | VIYSDGRRTFYGDSVK | GRAIGTFDS | nd | 0/6 | 0/18 |
| GFQLNDYGIS | VIYSDGRRTFYGDSVK | GRVAGTFIS | nd | 0/6 | 0/18 |
| GFTLNSYGIS | VIYSDGRRTFYNDSVK | GKAAGTFDS | nd | 0/6 | 0/18 |
| GFTLNSYGIS | VIYSDGRRTFYGDSVK | GKNAGTFDT | nd | 0/6 | 0/18 |
| GFTPNSYGIS | HIYSDGRRTFYADSVK | GRAAGTFDS | nd | 0/6 | 0/18 |
| GFNLNSYGIS | VIYSDGRRTFYVDKVK | GRNAGTFDS | nd | 0/6 | 0/18 |
| GNEINSYGIS | VIYADGGRTFYGDSVK | GRAAGTGDS | nd | 0/6 | 0/18 |
| GFTLNSYGIS | VIYSDGRRTFYGPSVK | RRAAGTFDS | nd | 0/6 | 0/18 |
| GFSLNSYGIS | VIYSDGRRTFYGDSVK | GRTAGTFDC | nd | 0/6 | 0/18 |
| GFTLNSYGIS | VIYADGRRTFYIDSVK | RRAAGTFPS | nd | 0/6 | 0/18 |
| GFALNSYGIS | VIYSDGRRTFMGDSVK | GPAAGTFSS | nd | 0/6 | 0/18 |
| GFTLNSYGIS | VIYSDGRRTSYGDSVS | GYAAGTFDS | nd | 0/6 | 0/18 |
| GFTLNSYGIS | VIYSDGRRTFYIDSVK | GDAAGTFDS | nd | 0/6 | 0/18 |
| GFTLNEYGIS | VIYSDGRRTFYGDNVK | GRAAGTFMT | nd | 0/6 | 1/18 |

A sequence that the file lists under several names has all its replicates pooled. A sequence measured in both rounds can read differently, since the two assays cover different ranges. The authors averaged sequences with at least three values out of six and counted those with two or fewer as poor binders.